Our source for the Kd values is PMC6928721, “Evaluation of the Reactivity and Receptor Competition of HLA-G Isoforms toward Available Antibodies: Implications of Structural Characteristics of HLA-G Isoforms” (International Journal of Molecular Sciences, 2019).

Test [1] has as its target T1, disulfide-linked HLA-G1 homodimer (ectodomain: heavy chain α1-α2-α3 domains, β2m and peptide …) (human | ). The experiment in a line: SPR; Biacore T200; MEM-G9 immobilised on a CM5 chip, HLA-G1 dimer captured on it, 0.8-12.5 µM LILRB1 injected; equilibrium binding analysis, one to one Langmuir fit. Conditions: both partners purified. (Surface plasmon resonance follows binding to a sensor surface in real time, without labels.)

In test [2] the target is T1, disulfide-linked HLA-G1 homodimer …. In words: SPR; Biacore T200; G233 immobilised on a CM5 chip, HLA-G1 dimer captured on it, 0.8-12.5 µM LILRB1 injected; equilibrium binding analysis, one to one Langmuir fit. Conditions: both partners purified.

Broadly, the Kd is a measure of binding affinity in units of concentration. A lower Kd goes with higher affinity.

B1: LILRB1 (leukocyte immunoglobulin-like receptor B1), N-terminal domains 1 and 2 of the extracellular domain (domain or fragment)
chain: GHLPKPTLWAEPGSVITQGSPVTLRCQGGQETQEYRLYREKKTALWITRIPQELVKKGQFPIPSITWEHAGRYRCYYGSDTAGRSESSDPLELVVTGAYIKPTLSAQPSPVVNSGGNVILQCDSQVAFDGFSLCKEGEDEHPQCLNSQPHARGSSRAIFSVGPVSPSRRWWYRCYAYDSNSPYEWSLPSDLLELLVLG
Regarding B1, the Kd in test [1] was 1.5 µM; in test [2], 2.5 µM.
